Test results from publication PMC4217307, “Release of GLP-1 and PYY in response to the activation of G protein-coupled bile acid receptor TGR5 is mediated by Epac/PLC-ε pathway and modulated by endogenous H2S” (Frontiers in Physiology, 2014).

By UniProt entry, the sequences of proteins in these tests, tags left out. Where a name states a change or a piece, a line headed by the entry shows the natural chain unless it says otherwise.
UniProt Q80SS6: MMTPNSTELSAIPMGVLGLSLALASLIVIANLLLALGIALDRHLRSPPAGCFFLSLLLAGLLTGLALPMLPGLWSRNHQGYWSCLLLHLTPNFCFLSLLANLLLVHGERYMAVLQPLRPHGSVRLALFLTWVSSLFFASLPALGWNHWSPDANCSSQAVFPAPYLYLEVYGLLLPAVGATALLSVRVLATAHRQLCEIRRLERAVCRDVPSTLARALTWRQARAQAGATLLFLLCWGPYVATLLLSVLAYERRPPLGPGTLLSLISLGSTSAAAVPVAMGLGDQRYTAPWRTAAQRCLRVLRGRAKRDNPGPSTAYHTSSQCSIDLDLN

Target: T1, TGR5 (G protein-coupled bile acid receptor) (Mus musculus, UniProt Q80SS6)
T1 construct: gene Gpbar1
Assay: cell-based

## CC1(C)CC[C@]2(C(=O)O)CC[C@]3(C)C(=CC[C@@H]4[C@@]5(C)CC[C@H](O)C(C)(C)[C@@H]5CC[C@]43C)[C@@H]2C1 [OA, oleanolic acid]
  EC50: 0.7 ± 0.1 µM
